Source: publication PMC4657098, “A Review of the Updated Pharmacophore for the Alpha 5 GABA(A) Benzodiazepine Receptor Model” (International Journal of Medicinal Chemistry, 2015)

Amino acid sequences for entries named in this document (tags omitted). Residues count along the entry.
UniProt P48169, 36-554 limits assumed: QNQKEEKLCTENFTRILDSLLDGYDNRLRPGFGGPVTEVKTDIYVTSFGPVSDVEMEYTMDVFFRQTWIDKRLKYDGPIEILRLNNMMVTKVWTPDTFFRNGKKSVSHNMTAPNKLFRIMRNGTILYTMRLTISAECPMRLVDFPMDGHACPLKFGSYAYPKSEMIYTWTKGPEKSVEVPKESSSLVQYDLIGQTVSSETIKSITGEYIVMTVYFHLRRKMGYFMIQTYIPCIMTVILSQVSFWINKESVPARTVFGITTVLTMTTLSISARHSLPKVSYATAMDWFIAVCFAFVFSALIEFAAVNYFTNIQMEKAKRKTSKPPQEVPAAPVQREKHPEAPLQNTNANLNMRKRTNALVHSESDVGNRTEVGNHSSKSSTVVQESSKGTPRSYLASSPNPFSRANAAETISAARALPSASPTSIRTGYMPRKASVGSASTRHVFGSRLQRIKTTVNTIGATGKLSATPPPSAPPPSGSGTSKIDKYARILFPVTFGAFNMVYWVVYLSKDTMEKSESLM

How the values were obtained:
α5β3γ2 GABAA/BzR = α5β3γ2 GABAA/BzR (Homo sapiens, UniProt P18507+P31644); experiment: Competition binding to HEK cell membranes, α5β3γ2; details: read-out: Ki α5
α3β3γ2 GABAA/BzR = α3β3γ2 GABAA/BzR (Homo sapiens, UniProt P18507+P34903); experiment: Competition binding to HEK cell membranes, α3β3γ2; details: read-out: Ki α3
α1β3γ2 GABAA/BzR = α1β3γ2 GABAA/BzR (Homo sapiens, UniProt P14867+P18507); experiment: Competition binding to HEK cell membranes, α1β3γ2; details: read-out: Ki α1
α6β3γ2 GABAA/BzR = α6β3γ2 GABAA/BzR (Homo sapiens, UniProt P18507+Q16445); experiment: Competition binding to HEK cell membranes, α6β3γ2; details: read-out: Ki α6
α2β3γ2 GABAA/BzR = α2β3γ2 GABAA/BzR (Homo sapiens, UniProt P18507+P47869); experiment: Competition binding to HEK cell membranes, α2β3γ2; details: read-out: Ki α2
α4β3γ2 GABAA/BzR = α4β3γ2 GABAA/BzR (Homo sapiens, UniProt P18507+P48169); details: read-out: Ki α4

Row | Structure (SMILES) | Ki (α5β3γ2 GABAA/BzR) | Ki (α3β3γ2 GABAA/BzR) | Ki (α1β3γ2 GABAA/BzR) | Ki (α6β3γ2 GABAA/BzR) | Ki (α2β3γ2 GABAA/BzR) | Ki (α4β3γ2 GABAA/BzR)
1 | C#Cc1ccc2c(c1)C(c1ccccc1)=NC(C)c1nnc(C)n1-2 (centres unmarked) | 8.07 nM | 20.9 nM |  |  |  | 
2 | CC(C)(C)c1ccc2[nH]cc3c(=O)n(-c4ccc(Br)cc4)nc-3c2c1 | 89 nM | 20 nM | 4.7 nM | 3530 nM | 4.4 nM | 1880 nM
3 | CCOC(=O)c1ncc2[nH]c3ccc(O)cc3c2c1COC |  |  | 2 nM | 3000 nM | 5.4 nM | 
4 | C#Cc1ccc2c(c1)C(=O)N(C)Cc1c(C(=O)OCCOCCOC(=O)c3ncn4c3CN(C)C(=O)c3cc(C#C)ccc3-4)ncn1-2 | 13.9 nM |  | 828 nM |  | 690 nM | 
5 | C[Si](C)(C)C#Cc1ccc(-n2nc3c4ccccc4[nH]cc-3c2=O)cc1 |  |  | 3 nM | 1000 nM |  | 
6 | C#Cc1ccc2c(c1)C(c1ccccc1)=NCc1c(C(=O)NC)ncn1-2 | 7.59 nM | 130 nM | 36.4 nM |  | 67.8 nM | 
7 | CCOC(=O)c1ncn2c1CN(C)C(=O)c1cc(C#N)ccc1-2 |  |  |  | 1000 nM |  | 
8 | CCOC(=O)c1ncn2c1CN(C)C(=O)c1cc(OC)ccc1-2 | 0.55 nM | 8.5 nM | 4.86 nM | 40 nM | 13 nM | 
9 | CN1C(=O)CN=C(c2ccccc2)c2cc(Br)ccc21 |  |  |  | 3000 nM |  | 
10 | CCOC(=O)c1ncn2c1CN(C)C(=O)c1cc(-c3cccs3)ccc1-2 | 1.4 nM | 24 nM | 1.6 nM | 23 nM | 34 nM | 5.6 nM
11 | CC=Cc1ccc2c(c1)C(=O)N(C)Cc1c(C(=O)OCC)ncn1-2 (single isomer, unassigned) [XHE-II-073A] | 1.18 nM | 10 nM | 5.9 nM | 140 nM | 11 nM | 15 nM
12 | CCOC(=O)c1ncn2c1[C@@H]1CCCN1C(=O)c1cc(OC)ccc1-2 | 0.295 nM | 4.56 nM | 60.2 nM |  | 24.1 nM | 
13 | CCOC(=O)c1ncn2c1CN(C)C(=O)c1ccccc1-2 |  |  |  | 500 nM |  | 219 nM
14 | CCOC(=O)c1ncn2c1CN(C)C(=O)c1cc(Br)ccc1-2 | 0.7 nM |  | 26 nM |  |  | 
15 | C#Cc1ccc2c(c1)C(=O)N(C)Cc1c(CCl)ncn1-2 | 7.05 nM | 3640 nM | 620 nM |  | 286 nM | 
16 | CN1Cc2c(C(=O)OC(C)(C)C)ncn2-c2ccc(Br)cc2C1=O |  |  | 11.2 nM |  |  | 
17 | CCOC(=O)c1ncn2c1CN=C(c1ccccc1)c1cc(CC)ccc1-2 |  |  | 1 nM |  |  | 
18 | CCOC(=O)c1ncn2c1CN(C)C(=O)c1cc(-c3ccccc3)ccc1-2 | 2.3 nM | 26 nM | 7 nM | 191 nM | 41 nM | 15 nM
19 | CCOC(=O)c1ncn2c1CN=C(c1ccccc1)c1cc(Br)ccc1-2 | 14 nM | 31 nM | 49 nM | 2040 nM | 24 nM | 1040 nM
20 | CCOC(=O)c1ncn2c1CN=C(c1ccccc1F)c1cc(Br)ccc1-2 [JYI-32] | 4.06 nM | 2.15 nM | 21.5 nM |  | 11 nM | 
21 | CC(C)(C)OC(=O)c1cc2c(cn1)[nH]c1ccccc12 [BCCt] | 69.8 nM | 12.3 nM | 1.09 nM | 21.2 nM | 5.44 nM | 
22 | CC[C@@H](OC(=O)c1ncn2c1[C@@H]1CCCN1C(=O)c1cc(Br)ccc1-2)C(F)(F)F | 14 nM | 244 nM | 176 nM | 141 nM | 752 nM | 290 nM
23 | CC#Cc1ccc2c(c1)C(=O)N(C)Cc1c(C(=O)OCC)ncn1-2 |  |  |  | 100 nM |  | 
24 | CCOC(=O)c1cc2c(cn1)[nH]c1ccc(OCc3ccccc3)cc12 |  | 284 nM | 7.2 nM | 10000 nM | 168 nM | 

Row | Structure (SMILES) | Ki (α5β3γ2 GABAA/BzR) | Ki (α3β3γ2 GABAA/BzR) | Ki (α1β3γ2 GABAA/BzR) | Ki (α6β3γ2 GABAA/BzR) | Ki (α2β3γ2 GABAA/BzR) | Ki (α4β3γ2 GABAA/BzR)
25 | CCOC(=O)c1ncn2c1CN(C)C(=O)c1c(Cl)cccc1-2 | 11.3 nM | 4.2 nM | 1.3 nM | 85.1 nM | 5.5 nM | 38.7 nM
26 | C[Si](C)(C)C#Cc1ccc2c3nn(-c4ccccc4)c(=O)c-3c[nH]c2c1 | 6.1 nM | 1.6 nM | 1.7 nM | 100 nM | 1.8 nM | 
27 | CC(C)(C)OC(=O)c1cc2c3cc(C#C[Si](C)(C)C)ccc3n(C(=O)OC(C)(C)C)c2cn1 |  | 0.89 nM |  |  |  | 
28 | C#Cc1ccc2c(c1)C(c1ccccc1F)=NCc1c(C(=O)OCCCOC(=O)c3ncn4c3CN=C(c3ccccc3F)c3cc(C#C)ccc3-4)ncn1-2 | 103 nM | 2.35 nM | 32.5 nM |  | 1.26 nM | 
29 | O=c1c2c[nH]c3cc(Br)ccc3c-2nn1-c1ccccc1 [QH-II-077] |  | 0.05 nM | 0.06 nM | 4 nM | 0.08 nM | 
30 | CC(C)(C)OC(=O)c1cc2c(cn1)[nH]c1ccc(I)cc12 | 562 nM | 23.1 nM | 2.72 nM | 122 nM | 22.2 nM | 
31 | CC(C)(C)C#Cc1ccc(-n2nc3c4ccccc4[nH]cc-3c2=O)cc1 | 90 nM | 39 nM | 9 nM | 1000 nM | 60 nM | 3230 nM
32 | CCOC(=O)c1ncn2c1CN(C)C(=O)c1cc(-c3ccco3)ccc1-2 | 0.6 nM | 5.3 nM | 1.1 nM | 15 nM | 5.3 nM | 2.8 nM
33 | C#Cc1ccc2c(c1)C(c1ccccc1)=NCc1c(C(=O)O)ncn1-2 | 5.9 nM | 44 nM | 50.4 nM |  | 11.8 nM | 
34 | C#Cc1ccc2c(c1)C(c1ccccc1F)=NCc1c(C(=O)N3CCN(C(=O)c4ncn5c4CN=C(c4ccccc4F)c4cc(C#C)ccc4-5)CC3)ncn1-2 | 103 nM | 10.8 nM | 296 nM |  | 15 nM | 
35 | CCOC(=O)c1ncn2c1C(C)N=C(c1ccccc1F)c1cc(Br)ccc1-2 (centres unmarked) | 1520 nM | 1220 nM | 1710 nM |  | 17.5 nM | 
36 | CN1C(=O)CN=C(c2ccccc2Cl)c2cc(C#C[Si](C)(C)C)ccc21 | 1.99 nM |  | 1.51 nM |  | 0.967 nM | 
37 | Cc1nnc2n1-c1ccc(C#C[Si](C)(C)C)cc1C(c1ccccc1)=NC2 | 15.5 nM |  | 222 nM |  | 154 nM | 
38 | C#Cc1ccc2c(c1)C(c1ccccc1)=NCC(=O)N2C |  |  |  | 3000 nM |  | 2000 nM
39 | C#Cc1ccc2c(c1)C(c1ccccc1)=NCc1nnc(C)n1-2 | 5.29 nM |  |  |  |  | 
40 | CCOC(=O)c1ncn2c1[C@@H]1CCCN1C(=O)c1ccccc1-2 |  |  |  | 311 nM |  | 880 nM
41 | C#Cc1ccc2c(c1)C(c1ccccc1Cl)=NCC(=O)N2 | 2.9 nM |  | 1.22 nM |  | 1.19 nM | 
42 | C#Cc1ccc2c(c1)C(c1ccccc1Cl)=NCc1nnc(C)n1-2 |  |  |  | 5000 nM |  | 
43 | C[C@@H]1N=C(c2ccccc2F)c2cc(Br)ccc2NC1=O | 0.11 nM | 0.383 nM | 0.774 nM |  | 0.172 nM | 
44 | CN1Cc2c(C(=O)OC(C)(C)C)ncn2-c2ccc(N=C=S)cc2C1=O |  |  |  | 31.7 nM |  | 
45 | Fc1ccccc1C1=NCc2c(-c3cnco3)ncn2-c2ccc(Br)cc21 | 0.24 nM | 13.8 nM | 11.1 nM |  | 4.87 nM | 
46 | O=C(OCC(F)(F)F)c1cc2c(cn1)[nH]c1ccccc12 [MMB-II-74] | 549 nM | 25.6 nM | 0.88 nM | 15.3 nM | 36 nM | 
47 | CCc1ccc2c(c1)C(=O)N(C)Cc1c(C(=O)OC(C)C)ncn1-2 |  |  |  |  | 56 nM | 
